Source: paper PMC10820479, “An Improved In Vitro Blood-Brain Barrier Model for the Evaluation of Drug Permeability Using Transwell with Shear Stress” (Pharmaceutics, 2023)

Tested on: in vitro AS BBB model (hCMEC/D3 co-cultured with U87MG)

## fluorescein isothiocyanate (FITC)–dextran [FITC-dextran 40 kDa]
  Papp: 0.23 ± 0.062 ×10^−6 cm/s
